Results as given in patent EP2933270B1, “ARTEANNUIN CYCLODEXTRIN CONJUGATE AND PREPARING METHOD THEREOF” (KPC Pharmaceuticals, Inc., priority 2012, dated 2014).
Read-outs that look alike come from different tables or passages of the source.

Assay: Solubility in water
Text: The arteannuin-cyclodextrin conjugate according to the present invention uses a cyclodextrin as a carrier, and a molecule of an arteannuin compound is connected, via an amide bond formed between the carboxyl group thereof and any amine group of the cyclodextrin modified by an amine group, to the cyclodextrin.

[1] = isolated product of the example

## conjugate of mono-[3-(diethylenetriamine)-6-deoxy]-α-cyclodextrin and the compound in which C-12 of the arteannuin was connected with a phenoxy group [Example 7]
[1]
  solubility: 88 mg/mL

## conjugate of mono-[6-(triethylenetetraamine)-6-deoxy]-γ-cyclodextrin and the compound in which C-12 of the arteannuin was connected with a phenoxy group [Example 8]
[1]
  solubility: 95 mg/mL

## mono-[3-(diethylenetriamine)-6-deoxy]-α-cyclodextrin-artesunate conjugate [Example 3]
[1]
  solubility: 78 mg/mL

## mono-[6-(ethanolamine)-6-deoxy]-γ-cyclodextrin-artesunate conjugate [Example 4]
  solubility: 75 mg/mL

## mono-[6-(monoamine)-6-deoxy]-β-cyclodextrin-artesunate conjugate [Example 2]
  solubility: 45 mg/mL
